Source: PubChem BioAssay
iPSC survival up = increases survival of single human iPS cells; AID 602274; 360,000 tested, 0.044% active; survival enhancement, % at 20 µM; hiPSC single-cell survival, ATPlite luminescence; 100% = ROCK inhibitor wells, 0% = DMSO; in the data active means survival enhancement above about 18%;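 further: cells exposed to compounds for 16 hours before the ATP read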
UUG fidelity = alters start codon recognition fidelity in yeast; S. cerevisiae UUG-firefly luciferase reporter, luminescence/redox ratio; activity score, % at 18.7 µM; actives 0.13% (n = 350,000); AID 602363;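 active = replicate mean at a twofold rise or more, about +100% in these data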;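 also: firefly luciferase made from a UUG start codon reports start codon fidelity; reporter light over untreated wells divided by growth signal over untreated wells; some hits fall short of that in this replicate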
PGC1a acetyl inh = lowers PGC1a acetylation signal in U2OS cells; AlphaScreen anti-acetyl-lysine; with virally co-expressed GCN5 acetyltransferase; 350,000 tested, 0.17% active; inhibition, % at 15.6 µM;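 active means every replicate shows inhibition of at least 40%; inconclusive means mean inhibition at least 40% but some replicate below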;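 further: 0% = neutral control wells and 100% = positive control wells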
Statin myotox sup = protects C2C12 myotubes from simvastatin toxicity. ATP luminescence, 48 h; scaled: DMSO 0, geranylgeraniol control 100. rescue of ATP level, % at 7.49 µM. 330,000 tested, 0.78% active. AID 602340;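 active means mean ATP rescue above about 67%, or every replicate alone reaching that limit, limit read from the data, passing the limit was not always enough; inconclusive means no clear call, values can overlap the other calls; inactive means mean under the limit and some replicate under it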;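 further: myotubes were challenged with 10 µM simvastatin during compound exposure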
FN deposition inh = fibronectin deposition inhibition; AH1F fibroblasts, Alexa488-fibronectin deposition fluorescence, overnight; inhibition, % at 12.6 µM; 350,000 tested, 0.086% active; AID 743247;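 active means mean inhibition across replicates of 30% or more, regardless of how many single replicates reach that level; inconclusive means mean under 30% yet at least half of replicates reach 30%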;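 further: positive control wells lacked labelled fibronectin entirely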
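Material: AH1F fibroblasts assembling fluorescent fibronectin matrix; amount: 10000 AH1F cells/well; medium: DMEM, 2% serum; reagent: Alexa488-fibronectin, 24 nM final in well; dosing: single compound dose, delivered by pin transfer; incubation: 1 h adhesion, overnight exposure; detection: fluorescence after three HBSS washes, excitation 485 nm, emission 525 nm; measure: fibronectin deposition inhibition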
Starred values were filed as active, the others as inactive; ? = inconclusive; / = not tested or not shown; ! = repeats disagree. Most compounds without a hit are left out; they make up all but 0.91% or so of the library.

Start of the listing, in advance:
Short forms: A = iPSC survival up; B = UUG fidelity; C = PGC1a acetyl inh; D = Statin myotox sup; E = FN deposition inh
> Cc1ccc(CNC(=O)c2ccc(CS(=O)(=O)c3ccccc3)o2)cc1
  A: 0	B: -12	C: 44*	D: 9	E: -1
> CCCCNC(=O)c1ccc(CS(=O)(=O)c2ccccc2OC)o1
  A: 0	B: -8	C: 44*	D: 8	E: 5
> CCCNC(=O)Nc1ccc2c(c1)C(=O)N(C)C[C@H](OC)[C@H](C)CN(C(=O)CC)[C@H](C)CO2
  A: /	B: /	C: -9	D: 1	E: -4

The listing, from the start:
Short forms: A = iPSC survival up; B = UUG fidelity; C = PGC1a acetyl inh; D = Statin myotox sup; E = FN deposition inh
> Cc1ccc(CNC(=O)c2ccc(CS(=O)(=O)c3ccccc3)o2)cc1
  A: 0	B: -12	C: 44*	D: 9	E: -1
> CCCCNC(=O)c1ccc(CS(=O)(=O)c2ccccc2OC)o1
  A: 0	B: -8	C: 44*	D: 8	E: 5
> CCCNC(=O)Nc1ccc2c(c1)C(=O)N(C)C[C@H](OC)[C@H](C)CN(C(=O)CC)[C@H](C)CO2
  A: /	B: /	C: -9	D: 1	E: -4
> COc1ccc(N(Cc2cc(=O)[nH]c3ccccc23)C(=O)c2ccco2)cc1
  A: -1	B: -4	C: 8	D: 135*	E: 1
> Cc1noc(C)c1S(=O)(=O)N(C)C[C@H]1OCCCC[C@@H](C)Oc2ccc(NC(=O)Nc3cccc4ccccc34)cc2C(=O)N([C@H](C)CO)C[C@@H]1C
  A: /	B: -8	C: 3	D: /	E: /
> C[C@H](CO)N1C[C@H](C)[C@H](CN(C)C(=O)Cc2ccccc2)Oc2ncc(-c3ccc(F)cc3)cc2C1=O
  A: /	B: 7	C: -10	D: -3	E: /
> Cc1cccc(Oc2nccc(C(F)(F)F)c2C(=O)Nc2ccc(F)cc2F)c1
  A: 0	B: /	C: 85*	D: 2	E: 10
> O=C(Nc1ccc(F)cc1F)c1c(C(F)(F)F)ccnc1Oc1ccccc1
  A: 0	B: -8	C: -18	D: /	E: -4
> COCC#Cc1ccc(CC[C@H]2O[C@H]3CC[C@@H](CO)O[C@H]3C[C@H]2n2cc(C3CC3)nn2)cc1
  A: /	B: /	C: -8	D: /	E: /
> COc1ccc(CN(C)C[C@H]2Oc3c(NC(=O)C4CC4)cccc3C(=O)N([C@@H](C)CO)C[C@@H]2C)cc1
  A: /	B: /	C: 0	D: 9	E: 0
> C[C@H]1CN([C@@H](C)CO)C(=O)CCCn2nncc2CO[C@@H]1CN(C)S(=O)(=O)c1cn(C)cn1
  A: 0	B: -1	C: 2	D: 5	E: -3
> C[C@@H]1CN([C@H](C)CO)C(=O)CCCn2nncc2CO[C@@H]1CN(C)S(=O)(=O)c1cn(C)cn1
  A: -1	B: 4	C: 101*!	D: 10	E: 1
> CC(=O)N(C)C[C@@H]1Oc2cc(-c3ccc(F)cc3)ccc2S(=O)(=O)N([C@@H](C)CO)C[C@@H]1C
  A: /	B: 6	C: -7	D: 10	E: /
> C[C@H]1CN([C@@H](C)CO)S(=O)(=O)c2ccc(-c3ccc(C#N)cc3)cc2O[C@@H]1CN(C)Cc1cccc(F)c1
  A: /	B: -6	C: -1	D: -39	E: /
> CCOC(=O)c1ccc2c(c1)nc(-c1ccccn1)n2CC
  A: -1	B: -34	C: /	D: -4	E: 4
> CCOC(=O)c1ccc2c(c1)nc(COc1ccc(OC)cc1)n2CC
  A: 3	B: -20	C: -38	D: 107*	E: /
> CCc1ccc(NC(=O)CSc2nnc(-c3ccco3)o2)cc1
  A: 0	B: -1	C: /	D: 5	E: 31*
> O=C(CC1CC1)N[C@H]1CC[C@H](CCNS(=O)(=O)c2ccc(Cl)cc2)O[C@H]1CO
  A: /	B: -7	C: 53*	D: 8	E: -12
> CCOC(=O)Cc1csc(NC(=O)CC(C)(C)C)n1
  A: 0	B: -4	C: -9	D: 110*	E: 9
> CCOC(=O)Cc1csc(NC(=O)CC)n1
  A: 8	B: -20	C: 2	D: 6	E: 0
> COc1ccc(NC(=O)Cn2nc3n(c2=S)CCC3)cc1
  A: 9	B: -26	C: 6	D: 100*	E: /
> COC(=O)C[C@@H]1C[C@@H]2c3cc(NC(=O)Nc4ccc(F)cc4)ccc3O[C@@H]2[C@H](CO)O1
  A: /	B: -18	C: 7	D: -9	E: 4
> CCOC(=O)Cc1nnc(NC(=O)COc2ccc(OC)cc2)s1
  A: 5	B: -20	C: -17	D: 130*	E: /
> COc1cccc(-c2cnc3c(c2)C(=O)N([C@H](C)CO)C[C@@H](C)[C@H](CN(C)C(=O)CN(C)C)O3)c1
  A: /	B: 14	C: -9	D: 9	E: /
> Cc1noc(C)c1NC(=O)N[C@H]1CC[C@H](CC(=O)Nc2ccc(-c3ccccc3)cc2)O[C@H]1CO
  A: /	B: -6	C: 13	D: 10	E: -12
> Cc1ccc(CNC(=O)Cn2cccc2C(=O)c2ccccc2)cc1
  A: -1	B: -21	C: 6	D: 109*	E: -2
> O=C(c1ccccc1)c1cccn1CC(=O)N1CCCCCC1
  A: -4	B: /	C: -5	D: 110*	E: /
> COC(=O)[C@]1(CO)N=C(c2ccc(OCCCO)cc2)O[C@@H]1c1ccccc1CN=[N+]=[N-]
  A: /	B: -3	C: 6	D: /	E: /
> CCCN(C)C[C@H]1OCCCC[C@@H](C)Oc2ccc(NC(=O)Nc3ccc(C(F)(F)F)cc3)cc2C(=O)N([C@@H](C)CO)C[C@H]1C
  A: /	B: 2	C: -16	D: /	E: /
> C[C@H]1CN([C@@H](C)CO)C(=O)Cc2cc(NS(=O)(=O)c3cn(C)cn3)ccc2O[C@@H]1CN(C)Cc1ccc(-c2ccccc2)cc1
  A: /	B: /	C: 0	D: 88*	E: /
> C[C@@H]1CN([C@@H](C)CO)C(=O)Cc2cc(NS(=O)(=O)c3ccc(Cl)cc3)ccc2O[C@H]1CN(C)Cc1ccc(-c2ccccc2)cc1
  A: /	B: /	C: -16	D: 69*	E: /
> C[C@@H]1CN([C@@H](C)CO)C(=O)Cc2cc(NS(=O)(=O)c3ccc(F)cc3)ccc2O[C@H]1CN(C)Cc1ccc(-c2ccccc2)cc1
  A: /	B: /	C: 2	D: 80*	E: /
> C[C@@H]1CN([C@H](C)CO)C(=O)Cc2cc(NS(=O)(=O)c3ccc(F)cc3)ccc2O[C@@H]1CN(C)Cc1ccc(-c2ccccc2)cc1
  A: /	B: /	C: -12	D: 40	E: /
> C[C@@H]1CN([C@@H](C)CO)C(=O)Cc2cc(NS(=O)(=O)c3ccc(Cl)cc3)ccc2O[C@@H]1CN(C)Cc1ccc(-c2ccccc2)cc1
  A: /	B: /	C: -8	D: 59	E: /
> C[C@@H]1CN([C@@H](C)CO)C(=O)Cc2cc(NS(=O)(=O)c3cn(C)cn3)ccc2O[C@H]1CN(C)Cc1ccc(-c2ccccc2)cc1
  A: /	B: /	C: 6	D: ?	E: /
> CN1CCN(C(=O)C[C@H]2CC[C@H]3[C@@H](COc4ccc(NC(=O)C5CCCCC5)cc4C(=O)N3C)O2)CC1
  A: /	B: -7	C: 3	D: -6	E: -3
> CCNC(=O)Nc1ccc2c(c1)C(=O)N(C)[C@H]1CC[C@@H](CC(=O)NCCOC)O[C@H]1CO2
  A: /	B: -13	C: -3	D: -3	E: 7
> COc1ccc(C(=O)NNC(=O)C(Cc2ccc(O)cc2)NC(=O)c2ccccc2NC(=O)c2ccc(OC)cc2)cc1 (stereo unspecified)
  A: 0	B: 2	C: -4	D: /	E: -1
> COc1ccc(C(=O)Nc2ccccc2C(=O)NC(Cc2ccc(O)cc2)C(=O)NNC(=O)c2ccccc2Cl)cc1 (stereo unspecified)
  A: -2	B: -1	C: -4	D: 112*	E: /
> C[C@@H]1CN([C@H](C)CO)C(=O)Cc2cc(NC(=O)C3CCCCC3)ccc2O[C@H]1CN(C)Cc1ccc(Cl)c(Cl)c1
  A: /	B: 9	C: 1	D: 139*	E: -1
> C[C@H]1CN([C@@H](C)CO)C(=O)Cc2cc(NC(=O)C3CCCCC3)ccc2O[C@H]1CN(C)Cc1ccc(Cl)c(Cl)c1
  A: /	B: -2	C: 11	D: 22	E: 11
> C[C@H](CO)N1C[C@H](C)[C@@H](CN(C)Cc2ccc(Cl)c(Cl)c2)Oc2ccc(NC(=O)C3CCCCC3)cc2CC1=O
  A: /	B: 2	C: 0	D: 132*	E: 3
> C[C@@H]1CN([C@H](C)CO)C(=O)Cc2cc(NS(=O)(=O)c3ccc(Cl)cc3)ccc2O[C@@H]1CN(C)C(=O)Nc1ccccc1
  A: /	B: 15	C: -7	D: 42	E: /
> COc1ccc(S(=O)(=O)CCC(=O)NC2CCCCC2)cc1
  A: 2	B: -14	C: 6	D: 87*	E: /
